Laboratory results from publication PMC8555866 (Nature chemical biology, 2021).

Chains of the proteins cited; added tags and fusions are not shown.
UniProt Q14145, whole entry: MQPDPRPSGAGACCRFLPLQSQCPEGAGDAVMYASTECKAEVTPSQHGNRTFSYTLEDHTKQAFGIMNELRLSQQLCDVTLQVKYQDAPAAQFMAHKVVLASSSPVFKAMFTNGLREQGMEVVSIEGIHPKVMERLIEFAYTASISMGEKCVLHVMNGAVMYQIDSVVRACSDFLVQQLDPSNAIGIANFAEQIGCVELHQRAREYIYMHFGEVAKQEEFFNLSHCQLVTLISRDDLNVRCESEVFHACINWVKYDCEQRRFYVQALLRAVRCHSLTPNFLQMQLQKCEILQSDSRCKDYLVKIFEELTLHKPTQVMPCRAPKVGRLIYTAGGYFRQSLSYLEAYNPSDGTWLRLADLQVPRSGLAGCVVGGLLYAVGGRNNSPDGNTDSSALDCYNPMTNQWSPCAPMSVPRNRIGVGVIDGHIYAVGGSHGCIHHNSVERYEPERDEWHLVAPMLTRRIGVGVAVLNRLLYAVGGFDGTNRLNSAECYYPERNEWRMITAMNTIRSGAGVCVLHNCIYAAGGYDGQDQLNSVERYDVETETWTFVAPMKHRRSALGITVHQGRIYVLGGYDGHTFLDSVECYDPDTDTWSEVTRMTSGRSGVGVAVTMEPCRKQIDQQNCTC

Biological target: Keap1 (6xHis/GST) (Homo sapiens, UniProt Q14145)
Experiment: Keap1 tracer saturation binding with epitope-tagged Keap1 and Tb-Anti-6xHis
Settings: read-out: Kd,app; 1 nM Keap1 (6xHis/GST), 0.5 nM Tb-Anti-6xHis

CC1(C)CC[C@]2(C(=O)NCCCOCCOCCOCCCNC(=S)Nc3ccc(-c4c5ccc(=O)cc-5oc5cc(O)ccc45)c(C(=O)O)c3)CC[C@]3(C)[C@H](C(=O)C=C4[C@@]5(C)C=C(C#N)C(=O)C(C)(C)[C@@H]5CC[C@]43C)[C@@H]2C1 [CDDO-FITC]
Kd: 6.8 ± 1.1 nM
